Reference: US12202866B2, “Therapeutic nanoconjugates and uses thereof” (UNIVERSITAT AUTÒNOMA DE BARCELONA (UAB), priority 2017, dated 2025)

Columns and labels:
[1] = Biodistribution and toxicity in normal organs, bone marrow and circulating blood cells; format: in vivo, mouse; conditions: after a 100 μg dose
Protocol: The T22-GFP-H6-FdU uptake measuring fluorescence emission, in bone marrow and circulating blood cells, was assessed 5 h after the administration of T22-GFP-H6-FdU at 10-100 μg doses. At necropsy, bone marrow was extracted and registered ex vivo in the IVIS® 200-Spectrum equipment. Mouse blood was collected by punction in the maxillary plexus. The erythrocytes, leucocytes and platelets were isolated by the Ficoll density gradient method using the standard protocol. Further, pellets were obtained by centrifugation of the isolated cell extracts at 600 g, 10 min and then recorded to measure fluorescence using IVIS® 200-Spectrum.
The T22-GFP-H6-FdU uptake was assessed by measuring the green fluorescence emitted by the GFP domain of the nanoconjugate, as well as DNA DSBs and apoptotic induction in normal (non-tumor) tissues using the methodology described above. In addition, two independent observers evaluated the possible histopathological alterations observed in H&E stained non-tumor tissue samples, searching for signs of toxicity.

[2] = test system: subcutaneous CXCR4^+ SW1417 CRC tumor; assay: Tumor uptake and tumor cell internalization in subcutaneous CXCR4+ SW1417 CRC model; conditions: 5 h after a 100 μg dose

## T22-GFP-H6-FdU: nanoconjugate of T22-GFP-H6 protein nanoparticle covalently bound via maleimide linker to thiol-functionalized pentameric floxuridine oligonucleotide (oligo-FdU)
[1]
  uptake in CXCR4 positive (bone marrow, spleen) or CXCR4 negative (kidney, lung, brain, heart or liver) normal tissues by fluorescence emission: undetectable, except for a transient accumulation in the liver
[2]
  Tumor/Liver ratio of emitted fluorescence: 7.5
